The target in test [1] is PDE4Bcat (Homo sapiens, UniProt Q07343). As to the kind of experiment: Inhibition of phosphodiesterase activity, [3H]-cAMP hydrolysis, recombinant PDE4Bcat. Type of test: biochemical. Conditions: read-out: IC50(μmol/L) PDE4, cAMP 2 μmol/L.
Test [2] addresses PDE3A catalytic domain (PDE3Acat) (Homo sapiens, UniProt Q14432). The test can be described thus: Inhibition of phosphodiesterase activity, [3H]-cAMP hydrolysis, recombinant PDE3Acat. Type of test: biochemical. Conditions: read-out: IC50(μmol/L) PDE3, cAMP 2 μmol/L.
Test [3] deals with PDE5Acat (Homo sapiens, UniProt O76074). As to the kind of experiment: Inhibition of phosphodiesterase activity, [3H]-cGMP hydrolysis, recombinant PDE5Acat. Type of test: biochemical. To be noted: read-out: IC50(μmol/L) PDE5, cGMP 2 μmol/L.
In test [4] the target is PDE10A1 (Homo sapiens, UniProt Q9Y233). As to the kind of experiment: Inhibition of phosphodiesterase activity, [3H]-cAMP hydrolysis, recombinant PDE10A1. Type of test: biochemical. Conditions: read-out: IC50(μmol/L) PDE10; human recombinant PDE10A1, cAMP 0.2 μmol/L.
Test [5] has as its system histamine-induced bronchoconstriction. As to the kind of experiment: Histamine-induced bronchoconstriction in guinea pigs. Type of test: in vivo, guinea pig. Conditions: 30 seconds after administration, histamine 12.5 μg/kg i.v.
[6] abbreviates: values in brackets: test compound 0.1 mg/kg, i.v.

The chains behind the UniProt entries cited, without tags or fusion partners. Residues count along the entry.
UniProt Q07343, 330-659 limits assumed: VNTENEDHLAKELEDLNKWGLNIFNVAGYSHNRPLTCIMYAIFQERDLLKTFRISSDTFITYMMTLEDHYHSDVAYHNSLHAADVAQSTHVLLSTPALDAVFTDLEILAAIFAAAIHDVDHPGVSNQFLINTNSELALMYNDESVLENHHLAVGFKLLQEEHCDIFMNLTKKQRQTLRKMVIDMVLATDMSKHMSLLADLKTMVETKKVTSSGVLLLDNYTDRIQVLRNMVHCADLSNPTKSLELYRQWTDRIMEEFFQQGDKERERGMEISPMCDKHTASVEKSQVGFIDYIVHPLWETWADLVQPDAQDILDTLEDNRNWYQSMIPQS
UniProt Q14432, 674-1093 limits assumed: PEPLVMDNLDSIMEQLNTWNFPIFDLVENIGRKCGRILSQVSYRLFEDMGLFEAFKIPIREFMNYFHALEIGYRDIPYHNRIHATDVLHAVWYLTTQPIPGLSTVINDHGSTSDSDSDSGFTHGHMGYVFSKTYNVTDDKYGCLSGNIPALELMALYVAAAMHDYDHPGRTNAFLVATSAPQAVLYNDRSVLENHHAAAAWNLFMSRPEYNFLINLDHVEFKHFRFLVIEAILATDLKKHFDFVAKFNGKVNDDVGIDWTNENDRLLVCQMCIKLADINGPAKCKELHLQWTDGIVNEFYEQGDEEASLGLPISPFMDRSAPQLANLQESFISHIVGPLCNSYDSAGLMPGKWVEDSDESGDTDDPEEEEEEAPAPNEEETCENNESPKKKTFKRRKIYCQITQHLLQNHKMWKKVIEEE
UniProt Q9Y233, 1-779 isoform 1: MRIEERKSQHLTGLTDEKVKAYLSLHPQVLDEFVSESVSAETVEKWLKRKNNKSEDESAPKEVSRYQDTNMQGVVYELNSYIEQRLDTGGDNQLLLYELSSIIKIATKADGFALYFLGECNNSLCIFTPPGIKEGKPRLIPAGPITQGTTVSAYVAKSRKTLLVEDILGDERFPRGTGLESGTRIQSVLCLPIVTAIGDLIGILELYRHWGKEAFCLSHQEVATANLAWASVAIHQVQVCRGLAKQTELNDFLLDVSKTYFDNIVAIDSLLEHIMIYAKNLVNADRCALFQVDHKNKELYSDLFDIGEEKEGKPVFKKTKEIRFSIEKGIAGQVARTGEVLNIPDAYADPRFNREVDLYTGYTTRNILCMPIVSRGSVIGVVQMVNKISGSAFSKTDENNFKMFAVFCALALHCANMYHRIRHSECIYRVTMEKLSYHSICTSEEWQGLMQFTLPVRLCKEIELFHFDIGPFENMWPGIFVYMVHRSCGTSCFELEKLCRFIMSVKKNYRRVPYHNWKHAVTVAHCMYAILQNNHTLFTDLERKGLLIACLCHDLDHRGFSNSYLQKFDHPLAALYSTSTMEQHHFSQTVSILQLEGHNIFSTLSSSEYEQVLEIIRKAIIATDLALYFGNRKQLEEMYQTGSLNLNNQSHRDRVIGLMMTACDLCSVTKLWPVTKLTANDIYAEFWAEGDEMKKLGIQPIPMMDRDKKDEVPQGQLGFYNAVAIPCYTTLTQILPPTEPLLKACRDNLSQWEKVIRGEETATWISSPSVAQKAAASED

Turning to `CCc1cc2c(C3=NN(Cc4ccccc4)C(=O)CC3C)ccc(OC)n2n1` (stereo not drawn), the results for the IC50 in test [1] and in test [2] were below 1 µmol/L and 1 to 10 µmol/L, respectively.
For the compound `COc1ccc(C2=NN(Cc3cccnc3)C(=O)CC2C)c2cc(C(C)C)nn12` (stereo not drawn), the values for the IC50 in test [1] and in test [2] were 0.1 to 1 µmol/L and above 10 µmol/L, respectively.
Take `COc1ccc(C2=NN(CCO)C(=O)CC2C)c2cc(C(F)(F)F)nn12` (stereo not drawn): the IC50 in test [1] was below 1 µmol/L; in test [2], above 10 µmol/L.
As for `CCc1cc2c(C3=NN(Cc4cccnc4)C(=O)CC3)cccn2n1`, the IC50 was above 10 µmol/L in test [3], above 10 µmol/L in test [1], above 10 µmol/L in test [2] and 1 to 10 µmol/L in test [4].
As to `CCOc1ccc(C2=NN(Cc3cccnc3)C(=O)CC2C)c2cc(C(F)(F)F)nn12` (stereo not drawn), the “% inhibition of histamine-induced bronchoconstriction” value (from here on “% inhibition”) in test [5] (setting [6]) is “[++] ((++) means the inhibition is 80% or more and less than 90%)”. Further, the IC50 in test [1] was 0.1 to 1 µmol/L; in test [2] it was above 10 µmol/L.
Turning to `CCc1cc2c(C3=NN(Cc4cccnc4)C(=O)CC3C)cccn2n1` (stereo not drawn), the IC50 in test [3] was above 10 µmol/L; in test [1], 1 to 10 µmol/L; in test [2] it was above 10 µmol/L; in test [4] it was 1 to 10 µmol/L.
In the case of `CCc1cc2c(C3=NN(CCc4ccccc4)C(=O)CC3C)ccc(OC)n2n1` (stereo not drawn), the figures for the IC50 in test [1] and in test [2] were below 1 µmol/L and 1 to 10 µmol/L, respectively.
Turning to `CCc1cc2c(C3=NN(Cc4cccc([N+](=O)[O-])c4)C(=O)CC3C)ccc(OC)n2n1` (stereo not drawn), in test [5] (setting [6]), the “% inhibition” value is “[+] ((+) means the inhibition is 70% or more and less than 80%)”. Further, the IC50 in test [1] was below 1 µmol/L; in test [2] it was 1 to 10 µmol/L.
Consider `CCc1cc2c(C3=NN(Cc4cccnc4)C(=O)CC3C)ccc(OC)n2n1` (stereo not drawn), for which the IC50 in test [3] was above 10 µmol/L; in test [1], 0.1 to 1 µmol/L; in test [2], above 10 µmol/L; in test [4], 1 to 10 µmol/L. The “% inhibition” value in test [5] (test compound 1 mg/kg i.v.) is “+ ((+) means the inhibition is 70% or more and less than 80%)”.

The record behind these values is patent US7763617B2, “Pyrazolopyridine-4-yl pyridazinone derivatives and addition salts thereof, and PDE inhibitors comprising the same derivatives or salts as active ingredient” (Kyorin Pharmaceutical Co., Ltd., priority 2005, dated 2010).
